# Literature values in patent publication US20230218693A1, “HEMP SPROUT PRODUCTS AND METHODS FOR PRODUCING SAME” (priority 2020, published 2023).
# Target: T1, mPGES-1 (Homo sapiens, UniProt O14684)
# T1 sequence (O14684 1-152): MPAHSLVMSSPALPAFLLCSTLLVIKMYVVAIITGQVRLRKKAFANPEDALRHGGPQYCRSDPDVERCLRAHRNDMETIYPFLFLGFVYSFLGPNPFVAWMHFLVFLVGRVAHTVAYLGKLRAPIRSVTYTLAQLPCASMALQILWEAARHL
# Conditions: mPGES-1, cell-free; 10 μM
smiles,measurement,value
"CC(C)c1ccc2c(c1)c(SC(C)(C)C)c(CC(C)(C)C(=O)O)n2Cc1ccc(Cl)cc1 [MK-886, reference compound]","Reference control, % inhibition at indic. conc.","MK-886 (10 μM), 83 ± 1%"
